{
  "source": "ChEMBL document CHEMBL1135708",
  "about": "“Synthesis of 1-(3,4-dihydroxy-5-nitrophenyl)-2-phenyl-ethanone and derivatives as potent and long-acting peripheral inhibitors of catechol-O-methyltransferase” (J Med Chem, 2002)",
  "target": "T1, Catechol O-methyltransferase (Rattus norvegicus, UniProt P22734)",
  "T1 sequence (P22734 whole entry)": "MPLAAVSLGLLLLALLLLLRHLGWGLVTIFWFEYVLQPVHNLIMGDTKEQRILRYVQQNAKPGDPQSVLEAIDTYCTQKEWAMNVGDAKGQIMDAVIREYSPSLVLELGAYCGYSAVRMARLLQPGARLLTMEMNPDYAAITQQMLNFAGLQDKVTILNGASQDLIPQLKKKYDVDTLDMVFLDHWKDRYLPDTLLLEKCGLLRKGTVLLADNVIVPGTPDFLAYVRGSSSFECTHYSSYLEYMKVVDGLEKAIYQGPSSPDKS",
  "data": [
    {"compound": "O=C(Cc1ccccc1)c1cc(O)c(O)c([N+](=O)[O-])c1", "note": "[NEBICAPONE]", "values": [
      {"measurement": "IC50", "value": 696, "unit": "µM"}
    ]}
  ]
}
